# Source: US20110076258A1, “METHODS OF MODULATING T CELL- DEPENDENT IMMUNE RESPONSES” (Converge Biotech Inc., priority 2008, published 2011)
# Test system: naive CD4 T cells
# Assay: T cell proliferation by CFSE dilution, plate-bound CD3 and CD28 mAbs
# Type: cell-based, mouse
# Conditions: IL-2 at 250 U/ml; PMA
# Source text: FIG. 6: Pharmacological inhibition of P2 receptors impairs T cell proliferation as well as IL-2 secretion and implements anergy. • a) FACS profiles showing dilution of CFSE fluorescence in sorted naïve CD4^+ cells stimulated with plate-bound CD3 and CD28 (see methods section) in the absence (upper panels) or presence (lower panels) of oATP (see Example 4). […] The number of cells with detectable marker (proliferating cells) in timed acquisitions is indicated. • b) A representative experiment showing the IL-2 concentrations measured by ELISA in culture supernatants of naïve CD4^+ cells stimulated with plate-bound CD3 and CD28 antibodies for 48 h, and in the presence of oATP or PPADS. Gray bars represent IL-2 concentrations obtained when PMA was added to the sample. • c) Quantification of Egr2 and Egr3 transcripts by real time RT-PCR at 2 and 16 h after stimulation of sorted naïve CD4^+ cells with plate-bound CD3 and CD28 antibodies either in the absence or presence of oATP (see Example 4). *, P<0.05 • d) Cytosolic Ca^2+ profiles following CD3 stimulation of OVA-specific T cell clones pre-incubated for 16 h with ionomycin, CD3 and CD28 antibodies alone or in combination with oATP or oATP and PMA (see Example 4).
# Therefore, we inferred that T cell stimulation in the presence of oATP might inhibit IL-2 expression. […]
substance,measurement,value
IL-2: interleukin-2 cytokine added at 250 U/ml,oATP inhibition of T cell proliferation on addition of second agent,partially rescued
